# Apparent affinities of Ab-14 variants for a coronavirus HR2 peptide

Reference: Li et al. 2023, doi:10.1038/s41467-023-39022-2. File: FLAb, binding data.

Target peptide (SARS-CoV-2 spike, HR2 region): PDVDLGDISGINAS

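The starting antibody came from a phage panning campaign against this peptide. These sequences belong to a second round, designed from the earlier measurements on random variants of the parent. Several design methods are mixed in this list. The assay is AlphaSeq: two haploid yeast populations carry antibody and antigen on their surface. Binding brings cells together so that they mate, and sequencing counts the barcode pairs among the diploids. Scores were corrected for input abundance and mapped to Kd with protein pairs of known affinity run in the same pool. Each pool was mated in six replicate cultures.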

Each scFv is VH, the linker GGGGSGGGGSGGGGS, VL, as in the parent Ab-14, and differs from it in the CDRs of the heavy chain only.
VH: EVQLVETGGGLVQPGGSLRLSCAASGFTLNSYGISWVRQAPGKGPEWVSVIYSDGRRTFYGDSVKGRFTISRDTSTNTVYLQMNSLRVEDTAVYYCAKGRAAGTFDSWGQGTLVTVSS
VL: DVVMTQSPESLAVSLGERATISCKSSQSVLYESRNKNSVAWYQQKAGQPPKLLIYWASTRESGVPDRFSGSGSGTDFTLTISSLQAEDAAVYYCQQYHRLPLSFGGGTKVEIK

The parent's heavy chain CDRs are GFTLNSYGIS, VIYSDGRRTFYGDSVK, GRAAGTFDS; each variant's own CDRs replace them letter for letter. Values are log10 of the apparent Kd in nM; lower means stronger binding. A mean of the replicates is given; it leaves out those without a signal. "nd" means that the variant was in the library but no mating with the target was seen in any replicate; the authors take this as a sign of poor binding, and no number exists. Some sequences occur more than once in the pool; their replicates are pooled.

mean log10 Kd (nM),seen in,CDR-H1,CDR-H2,CDR-H3
1.22,5 of 12,GFTLNSYGIS,VIYSDGRRTFYGDSVK,GKVAGTFDS
-0.49,6 of 6,GFDLNEYGIS,VIYADGRRTAYIDSVK,GEIAGTFDL
-0.08,6 of 6,GFDLNEYGIS,VIYADGRRTAYSDSVK,GEVAGTFDM
-0.13,6 of 6,GFNLNEYGIS,VIYADGRRSFYSDSVK,GEIAGTFDV
0.37,6 of 6,GFTLNEYGIS,VIYSDGIRTFYGDSVK,GRLAGTFDS
-0.69,6 of 6,GFDLNEYGIS,VIYADGRRTFYTDSVK,GEVAGTFDI
1.53,6 of 6,GFTLNDYGIS,VIYSDGRRTFYIDSVK,GRAAGSFDS
0.16,6 of 6,GFDLNTYGIS,VIYSDGRRTFYGDKVK,GRTAGTFDS
3.14,1 of 6,GFDIEKYGIS,VIYADGQRVSYDSSVK,GENAGNFMV
2.27,4 of 6,GFTLNDYGIS,VIYSDGRRTQYIDSVK,GRAAGTFDF
nd,0 of 6,GFTLNKYGIS,VIYSDGRRTWYGDSVK,GRAGLTFDS
nd,0 of 6,GFHLNSYGIS,VIYSDGRRTFYGDSVK,GRAAFTFDW
-1.10,6 of 6,GFDLNEYGIS,VIYADGRRTAYADNVK,GETAGTFDI
nd,0 of 6,GFELESYGIS,VIYSDGRRTFYADSVK,GKAAGTFDS
-0.38,6 of 6,GFDLNEYGIS,VIYADGKRTAYADSVK,GNTAGTFDM
nd,0 of 6,GFTLNSYGIS,VIYSDGRRTFYGDSVK,GRAAATFDM
-0.36,6 of 6,GFDLNEYGIS,VIYADGRRTFYADSVK,GNTAGTFDT
nd,0 of 6,GFTLNSYGIS,VIYSDGRRTFYGDSVK,GQAACTFDS
0.29,6 of 6,GFTLNSYGIS,VIYSDGKRTFYSDSVK,GQAAGTFDV
1.23,6 of 6,GFGLDEYGIS,VIYADGVRRFYKNSVK,GHYGDGFLH
-0.76,6 of 6,GFDLDEYGIS,VIYADGMRKYYADSVK,GNVAGTFDV
0.88,3 of 6,GFTLESYGIS,VIYSDGRRTAYTDSVK,GRAAGTFDS
nd,0 of 6,GFTLNSYGIS,VIYADGRRTAYGDSVK,GRAAGTFDQ
0.33,6 of 6,GFDLNSYGIS,VIYSDGRRTFYHDSVK,GQAAGTFDS
1.10,6 of 6,GFVLNEYGIS,VIYSDGRRTFYTDSVK,GRAAGTFDS
nd,0 of 6,GFDLDEQGIS,VIYADGQRTAYADQVK,GMNGVIFRT
-0.46,6 of 6,GFDLNEYGIS,VIYADGRRTAYLDSVK,GQIAGTFDT
nd,0 of 6,GFTLNSYGIS,VIYADGRRTFYGDSVK,GRIVGTFLS
-0.26,6 of 6,GFDLNEYGIS,VIYADGMRTAYAESVK,GNNAGTFDV
nd,0 of 6,GFTLNSYGIS,VIYSDGRRTFMGDSVK,GQAAFTFDQ
2.15,6 of 6,GFYLNSYGIS,VIYSDGRRTFYDDSVK,GQVAGTFDS
0.13,6 of 6,GFTLNSYGIS,VIYADGRRTFYGDSVK,GRQAGTFKS
0.49,6 of 6,GFSLNNYGIS,VIYSDGRRTFYGDSVK,GQAAGTFDS
0.35,6 of 6,GFDLNSYGIS,VIYSDGKRTFYIDSVK,GKAAGTFDS
0.51,6 of 6,GFSLNSYGIS,VIYSDGRRTFYVDSVK,GNVAGTFDS
nd,0 of 6,GFTLNSYGIS,VIYSDGRRTFYSDSVK,GRAAVTFDL
0.57,6 of 6,GFDLNSYGIS,VIYSDGRRTFYGDRVK,GEAAGTFDS
0.56,6 of 6,GFTLNQYGIS,VIYSDGRRTFYGDSVK,GRAAGTFDT
0.47,6 of 6,GFDLNSYGIS,VIYSDGRRTFYGDQVK,GRTAGTFDA
0.07,6 of 6,GFTLNQYGIS,VIYSDGTRTFYSDSVK,GRQAGTFDS
0.67,6 of 6,GFTLNNYGIS,VIYSDGRRTFYSDSVK,GRAAGTFDS
1.12,5 of 6,GFELNMYGIS,VIYSDGRRTFYSDSVK,GEAAGTFDS
1.22,6 of 6,GFTVNSYGIS,VIYADGRRTFYGDSVK,GRVAGVFDS
nd,0 of 6,GASLNSYGIS,VIYSDGRRTFYGDQVK,GRAADTDDS
-0.73,6 of 6,GFDINEYGIS,VIYADGRRTFYADSVK,GQTAGTFDI
1.70,4 of 6,GFTLESYGIS,VIYSDGRRTFYADSVK,GQGAGTFDS
nd,0 of 6,GFDLNSYGIS,VIYSDGRRAFYGDSVK,GRAAGWFNS
-0.04,6 of 6,GFDLDEYGIS,VIYADGRRTFYIDSVK,GQAAGTFDQ
nd,0 of 6,GFNLEDYGIS,VIYADGIRMSYQEAVK,GQNSGVIVN
nd,0 of 6,GDTLNSYGIS,VIYSDGYRTFYGDSVK,GRAAGRFDS
nd,0 of 6,GFQLNEYGIS,VIYADGIRREYASKVK,GGINASFDL
nd,0 of 6,GFTLNKYGIS,VIYADGRRTFYGDSVK,GRAAGTNGS
-0.02,6 of 6,GFDLDEYGIS,VIYADGQRTAYTDSVK,GETAGTFDV
0.93,5 of 6,GFTLDSYGIS,VIYSDGRRTFYHDSVK,GRAAGTFDR
0.51,3 of 6,GFDLNEYGIS,VIYADGMRTQYIDSVK,GEQAGTFDV
0.49,6 of 6,GFSLNSYGIS,VIYSDGRRTVYGDSVK,GQAAGTFDS
nd,0 of 6,GFDLDEYGIS,VIYADGHRVSYAADVK,GSVEGVDMV
0.44,6 of 6,GFDLNEYGIS,VIYADGRRTFYSDSVK,GEIAGTFDK
0.87,6 of 6,GFELNSYGIS,VIYSDGRRTFYSDSVK,GQAAGTFDD
-0.10,6 of 6,GFDLNEYGIS,VIYADGQRTAYADDVK,GEVAGTFDQ
nd,0 of 6,GFTLKSYGIS,VIYSDGRRTFYKDSVK,GKLAGTFDS
nd,0 of 6,GFTLNDYGIS,VIYSDGRRTFYGDSVK,GRAAGTFSK
1.16,6 of 6,GFDLDEYGIS,VIYADGVRTAYIDSVK,GENAGTFDV
-0.56,6 of 6,GFNLDEYGIS,VIYADGRRTFYSDDVK,GEVAGTFDI
-0.28,6 of 6,GFDLDEYGIS,VIYADGRRTAYADSVK,GQTAGTFDV
nd,0 of 6,GDDLQEYGIS,VIYADGLRTAYGNSVK,GGSNGLMTV
nd,0 of 6,GFTLNSYGIS,VIYSDGRYTFYDDSVK,GQLAGTFDT
1.10,6 of 6,GFDLNEYGIS,VIYADGMRTAYSDSVK,GTNAGTFDT
0.15,6 of 6,GFTLNSYGIS,VIYADGRRTFYGDSVK,GKRAGTFDS
1.87,1 of 6,GFTINSYGIS,VIYSDGRRTFYADSVK,GRAAGTFDW
0.60,6 of 6,GFSLNEYGIS,VIYSDGRRTFYGDSVK,GRMAGTFDG
-0.16,6 of 6,GFDLNSYGIS,VIYSDGKRTFYGDSVK,GRTAGTFDD
1.39,2 of 6,GFTLNSYGIS,VIYSDGRRTFYADFVK,GRAAGTFDY
nd,0 of 6,GFTLDEYGIS,VIYADGQRTAYTDDVK,GQYGGIGTI
0.33,6 of 6,GFDLNEYGIS,VIYADGRRTAYADDVK,GENAGTFDT
2.20,1 of 6,GFTLNSYGIS,VIYSDGERTFYGDSVK,GRAAGTFST
0.68,6 of 6,MFDLNSYGIS,VIYSDGRRTFYHDSVK,GRTAGTFDS
1.98,3 of 6,GFTLNSYGIS,VIYSDGRRTFYGDDVK,GRNAGTFDS

From the list, the first 12 with no signal in any replicate:

CDR-H1,CDR-H2,CDR-H3,mean log10 Kd (nM),seen in
GFTLNKYGIS,VIYSDGRRTWYGDSVK,GRAGLTFDS,nd,0 of 6
GFHLNSYGIS,VIYSDGRRTFYGDSVK,GRAAFTFDW,nd,0 of 6
GFELESYGIS,VIYSDGRRTFYADSVK,GKAAGTFDS,nd,0 of 6
GFTLNSYGIS,VIYSDGRRTFYGDSVK,GRAAATFDM,nd,0 of 6
GFTLNSYGIS,VIYSDGRRTFYGDSVK,GQAACTFDS,nd,0 of 6
GFTLNSYGIS,VIYADGRRTAYGDSVK,GRAAGTFDQ,nd,0 of 6
GFDLDEQGIS,VIYADGQRTAYADQVK,GMNGVIFRT,nd,0 of 6
GFTLNSYGIS,VIYADGRRTFYGDSVK,GRIVGTFLS,nd,0 of 6
GFTLNSYGIS,VIYSDGRRTFMGDSVK,GQAAFTFDQ,nd,0 of 6
GFTLNSYGIS,VIYSDGRRTFYSDSVK,GRAAVTFDL,nd,0 of 6
GASLNSYGIS,VIYSDGRRTFYGDQVK,GRAADTDDS,nd,0 of 6
GFDLNSYGIS,VIYSDGRRAFYGDSVK,GRAAGWFNS,nd,0 of 6

In the paper, a design with two or fewer of six values counts as a poor binder. The parent sequence was in this pool as ten entries: three were never detected, three once, and four in most replicates, with averages from 0.34 to 2.37. As a blank, each scFv also met three strains without target: over all heavy chain designs, 1% of these pairings were detected, typically at 2.08 and seldom below 0.84. A sequence measured in both rounds can read differently, since the two assays cover different ranges.